From ChEMBL document CHEMBL1909046, “DrugMatrix in vitro pharmacology data”

Sequences of proteins named here, by UniProt entry; tags and fusion partners are left off. A change or cut given only in a name is not applied to a line headed by its entry.
UniProt P41145: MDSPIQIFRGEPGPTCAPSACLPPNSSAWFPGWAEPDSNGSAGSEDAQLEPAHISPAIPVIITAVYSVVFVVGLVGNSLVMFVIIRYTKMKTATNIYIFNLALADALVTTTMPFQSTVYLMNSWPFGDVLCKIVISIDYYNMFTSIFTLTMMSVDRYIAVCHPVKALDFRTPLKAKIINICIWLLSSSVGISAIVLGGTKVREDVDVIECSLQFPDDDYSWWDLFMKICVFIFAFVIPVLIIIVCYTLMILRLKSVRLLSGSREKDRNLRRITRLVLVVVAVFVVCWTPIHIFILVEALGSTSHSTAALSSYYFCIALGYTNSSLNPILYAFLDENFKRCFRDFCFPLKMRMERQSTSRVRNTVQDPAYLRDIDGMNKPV
UniProt P35372, whole entry, looked up: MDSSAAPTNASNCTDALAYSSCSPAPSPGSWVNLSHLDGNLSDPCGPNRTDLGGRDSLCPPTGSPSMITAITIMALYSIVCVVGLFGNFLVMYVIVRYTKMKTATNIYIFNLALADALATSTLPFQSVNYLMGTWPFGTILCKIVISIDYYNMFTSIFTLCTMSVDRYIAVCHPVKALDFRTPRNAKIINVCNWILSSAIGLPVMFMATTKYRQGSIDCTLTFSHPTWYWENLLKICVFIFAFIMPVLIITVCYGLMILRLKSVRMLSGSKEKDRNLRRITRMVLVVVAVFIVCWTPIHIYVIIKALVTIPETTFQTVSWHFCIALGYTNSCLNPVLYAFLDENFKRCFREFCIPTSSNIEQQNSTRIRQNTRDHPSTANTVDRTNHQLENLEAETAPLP

Experiments:
[1] = target: Kappa-type opioid receptor (Homo sapiens, UniProt P41145); assay: DRUGMATRIX: Opiate kappa (OP2, KOP) radioligand binding (ligand: [3H] Diprenorphine); settings: hek293
Mu-type opioid receptor = Mu-type opioid receptor (Homo sapiens, UniProt P35372); assay: DRUGMATRIX: Opiate mu (OP3, MOP) radioligand binding (ligand: [3H] Diprenorphine); settings: cho-k1

S=C=Nc1cccc2ccccc12
Not Active: IC50 [1] | Ki [1] | IC50 (Mu-type opioid receptor) | Ki (Mu-type opioid receptor)

COc1ccc(Cc2nccc3cc(OC)c(OC)cc23)cc1OC
Not Active: IC50 [1] | Ki [1] | IC50 (Mu-type opioid receptor) | Ki (Mu-type opioid receptor)

CN(C)C(=O)Oc1cccc([N+](C)(C)C)c1.[Br-] [NEOSTIGMINE BROMIDE]
Not Active: IC50 [1] | Ki [1]

O=C(Nc1ccc(Br)cc1)c1cc(Br)cc(Br)c1O
Not Active: IC50 [1] | Ki [1] | IC50 (Mu-type opioid receptor) | Ki (Mu-type opioid receptor)

Cc1nnc2n1-c1ccc(Cl)cc1C(c1ccccc1)=NC2
Not Active: IC50 [1] | Ki [1] | IC50 (Mu-type opioid receptor) | Ki (Mu-type opioid receptor)

c1ccc2c(c1)cc1ccc3cccc4ccc2c1c34
Not Active: IC50 [1] | Ki [1] | IC50 (Mu-type opioid receptor) | Ki (Mu-type opioid receptor)
